From patent US10590115B2, “Tetrahydroquinazoline derivatives useful as anticancer agents” (PFIZER INC., priority 2018, dated 2020)

Target: T1, GDP-loaded kRas (1-169) G12C, C51S, C80L, C118S (Homo sapiens, UniProt P01116, C118S/C51S/C80L/G12C)
T1 construct: GDP-loaded kRas (1-169) G12C, C51S, C80L, C118S
Test: Mass Spectrometry Reactivity Assay (MSRA), covalent adduct with kRas G12C
Format: binding
Conditions: 0.5 h at room temperature; 5 μM KRas protein; typical final concentration of the compounds 10 μM
Description: Mass Spectrometry Reactivity Assay (MSRA)
Compounds presented in the present invention covalently bind to kRas G12C using MSRA to detect a covalent adduct of the exemplary compound and kRas G12C. GDP-loaded kRas (1-169) G12C, C51S, C80L, C118S were diluted in the protein assay buffer 25 mM Hepes pH7.5, 200 mM NaCl, 5% glycerol to concentration of 5 μM and 20 μl of protein was transferred into 96-well plate. Initial compound stocks were generated at concentrations 100-fold higher that their desired assay concentrations. See K-Ras(G12C) inhibitors allosterically control GTP affinity and effector interactions; Ostrem J M, Peters U, Sos M L, Wells J A, Shokat K M; Nature. 2013, Nov. 28; 503(7477):548-51.
Exemplary compounds dissolved in DMSO were diluted 100-fold into solution containing 20 μl of 5 μM KRas protein in the 96-well plate to initiate the reaction. Mosquito (TPP Lab tech) liquid handling robot was used to add compounds to protein solution. Typical final concentration of the compounds was 10 μM. The plates were placed on a shaker for 1 min at RT, sealed and incubated at room temperature for specified time period. 5 μl of reaction mix was added to 10 μl of 0.2% formic acid stop solution and mixed well. […]
The percent of modified protein at the defined concentration of exemplary compound was calculated using the following formula: % mod=Num of modified peak/Sum of modified+unmodified. […]

C=CC(=O)N1CCN(c2nc(N3CC(N(C)C)C3)nc3c2C[C@@H](C)[C@H](c2c(Cl)ccc4[nH]ncc24)C3)CC1 (single isomer, unassigned) [Example F10]
% Modification (0.5 h): 85%
